What was measured:
[1] = tested on: COLO205 human colon cancer cells; assay: In vivo anti-tumor experiment (1), COLO205 xenograft; set-up: species or system nude mice; details: COLO205, low HER2; intravenous day 0; 3 mg/kg and 10 mg/kg (Kadcyla 10 mg/kg); FIG. 29
Experimental: The efficacy of the combination of the present invention can be measured in vivo, i.e., an allograft or xenograft of cancer cells was implanted in rodents, and the tumors were treated with the combination. Test mice were treated with drugs or controls and monitored for several weeks or longer to measure the time to tumor doubling, log cell killing, and tumor inhibition.
COLO205 human colon cancer cells (ATCC) with low expression of HER2 were suspended in physiological saline. 4×10^7 cells were subcutaneously transplanted into the right flank of female nude mice, which were randomized into groups on day 6. […] As a control group, a PBS buffer-administered group was set.
It should be noted that, regarding the expression of HER2 in tumors, the results obtained by the determination based on immunohistochemical staining classified those with a score of 3+ as high expression, those with a score of 2+ as medium expression, and those with a score of 1+ as low expression.

[2] = in vivo; cited from earlier work
[3] = tested on: breast cancer with low HER2 expression; details: DS8201-A-J101 clinical study; cited from earlier work

Row | Substance | tumor growth inhibitory activity [1] | side effects [2] | confirmed objective response rate (ORRs) [3] [%]
1 | Kadcyla | did not show tumor growth inhibitory activity |  | 
2 | Enhertu |  | pneumonia and interstitial lung disease | 37.0
